The entries are a selection whose mix differs from that of the whole data set. The source made the active and inactive calls.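 Rule for the calls: active = inhibition above the mean of all tested compounds plus 3 SD (cut at about 70% in these data); inactive = the rest.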
molecular target: Photoreceptor-specific nuclear receptor (Homo sapiens) (UniProt Q9Y5X4); assay: NR2E3 agonists in two-hybrid cells, primary screen, cell-based, luminescence, CHO-S, Gal4-NCOR/VP16-NR2E3 (AID 602229); settings: luciferase, at 3.98 µM, active compounds read high;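 note: 0% = DMSO with NR2E3 transfected cells and 100% = cells lacking NR2E3 construct; higher means lower luciferase signal from less NR2E3 corepressor binding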

Protein sequences, listed by entry. Tags and fused reporters are not part of them.
UniProt Q9Y5X4, whole entry: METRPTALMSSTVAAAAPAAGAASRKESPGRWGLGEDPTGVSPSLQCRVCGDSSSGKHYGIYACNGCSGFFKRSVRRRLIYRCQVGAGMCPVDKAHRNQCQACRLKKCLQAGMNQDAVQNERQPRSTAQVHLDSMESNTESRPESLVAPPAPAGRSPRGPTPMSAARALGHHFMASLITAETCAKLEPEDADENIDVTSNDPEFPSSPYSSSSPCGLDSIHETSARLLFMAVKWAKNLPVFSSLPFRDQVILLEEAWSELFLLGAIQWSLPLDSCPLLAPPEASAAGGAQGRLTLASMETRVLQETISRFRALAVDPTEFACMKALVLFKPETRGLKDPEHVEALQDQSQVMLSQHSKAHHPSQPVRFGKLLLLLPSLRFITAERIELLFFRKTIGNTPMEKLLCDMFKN

SMILES | inhibition of corepressor binding
O=C(NCC1(N2CCCCC2)CCCCC1)c1ccco1 | inactive: 15.8%
Cn1c(=O)[nH]cc(N(CCCl)CCCl)c1=O | inactive: -16.7%
CN(C)c1ccc(C(=O)NCC2(N3CCCCC3)CCCCC2)cc1 | inactive: -6.69%
Cc1ccccc1NC1(C#N)CCN(Cc2ccccc2)CC1 | inactive: -26%
CC(C)(C)n1nnnc1C(c1ccnc2ccccc12)N1CCC(n2c(=O)[nH]c3ccccc32)CC1 (stereo not drawn) | inactive: 24.7%
CCN1CCC(Nc2cccc(F)c2)CC1 | inactive: 13.1%
COc1ccc(C(c2nnnn2C2CCCCC2)N2CCC(n3c(=O)[nH]c4ccccc43)CC2)cc1 (stereo not drawn) | inactive: -6.8%
Cc1ccc(C(=O)NCC2(N3CCCCC3)CCCCC2)o1 | inactive: -3.82%
Fc1ccccc1NC1CCN(Cc2ccccc2)CC1 | inactive: -16.9%
Cc1ccc(NC2(C#N)CCN(Cc3ccccc3)CC2)cc1 | inactive: -1.06%
CC(=O)N(c1ccccc1)C1CCNCC1 | inactive: -11.2%
COc1cccc(C(c2nnnn2C2CCCCC2)N2CCC(n3c(=O)[nH]c4ccccc43)CC2)c1OC (stereo not drawn) | inactive: 6.18%
CCC(c1nnnn1C1CCCCC1)N1CCC(n2c(=O)[nH]c3ccccc32)CC1 (stereo not drawn) | inactive: -2.45%
O=c1[nH]c2ccccc2n1C1CCN(C(c2ccnc3ccccc23)c2nnnn2C2CCCCC2)CC1 (stereo not drawn) | inactive: -5.05%
COc1cc(OC)cc(C(=O)NCC2(N3CCCCC3)CCCCC2)c1 | inactive: -23.9%
CN1CCC(Nc2ccc(Cl)cc2)CC1 | inactive: 4.89%
COc1cccc(C(=O)N(c2cc(C)cc(C)c2)C2CCN(C(=O)OC(C)(C)C)CC2)c1 | inactive: -12.7%
COc1cccc(C(c2nnnn2C2CCCC2)N2CCC(n3c(=O)[nH]c4ccccc43)CC2)c1OC (stereo not drawn) | inactive: -15.2%
COc1cc(OC)cc(C(=O)NCC2(N3CCOCC3)CCCCC2)c1 | inactive: -6.27%
CCC(CO)(C(=O)OC1CN2CCC1CC2)c1ccccc1 (stereo not drawn) | inactive: -6.88%
CC(C)(C)OC(=O)N1CCC(Nc2ccccc2)CC1 | inactive: 16.4%
NN(c1ccccc1)C1CCN(CCc2ccccc2)CC1 | inactive: -20.8%

SMILES | inhibition of corepressor binding
O=C(O)C1(Nc2ccccc2)CCN(Cc2ccccc2)CC1 | inactive: 10%
CCCOc1ccc(C(=O)NCC2(N(C)C)CCCCC2)cc1 | inactive: -17.3%
O=c1[nH]c2ccccc2n1C1CCN(C(c2cc3ccccc3o2)c2nnnn2C2CCCC2)CC1 (stereo not drawn) | inactive: 7.62%
CCOc1ncccc1C(=O)NCC1(N2CCOCC2)CCCCC1 | inactive: -17.4%
CN1CCC(Nc2ccc(F)c(Cl)c2)CC1 | inactive: 8.54%
O=C(OC1CN2CCC1CC2)C1c2ccccc2C=Cc2ccccc21 (stereo not drawn) | inactive: 8.74%
O=c1[nH]c2ccccc2n1C1CCN(C(c2cccs2)c2nnnn2C2CCCC2)CC1 (stereo not drawn) | inactive: -12.2%
CCCCn1nnnc1C(c1cccc(OC)c1OC)N1CCC(n2c(=O)[nH]c3ccccc32)CC1 (stereo not drawn) | inactive: 15.5%
COc1cccc(C(c2nnnn2C(C)(C)C)N2CCC(n3c(=O)[nH]c4ccccc43)CC2)c1OC (stereo not drawn) | inactive: 22.2%
CCOC(=O)N1CCC(Nc2ccc(C)cc2)CC1 | inactive: -2.89%
N/C(=N\O)c1c(N)no[n+]1[O-] | inactive: -48.8%
O=c1[nH]c2ccccc2n1C1CCN(C(c2cccs2)c2nnnn2C2CCCCC2)CC1 (stereo not drawn) | inactive: 12.2%
COc1ccc(C(=O)NCC2(N3CCOCC3)CCCCC2)cc1OC | inactive: 17.1%
O=c1[nH]c2ccccc2n1C1CCN(C(c2ccnc3ccccc23)c2nnnn2C2CCCC2)CC1 (stereo not drawn) | inactive: 8.4%
CCCCn1nnnc1C(c1ccccc1)N1CCC(n2c(=O)[nH]c3ccccc32)CC1 (stereo not drawn) | inactive: -4.04%
COc1cc(C(=O)NCC2(N3CCOCC3)CCCCC2)cc(OC)c1C | inactive: -0.1%
O=C(NCC1(N2CCOCC2)CCCCC1)c1cc(Br)ccc1Cl | inactive: 13.4%
CC(C)(C)n1nnnc1C(c1cccc2ccccc12)N1CCC(n2c(=O)[nH]c3ccccc32)CC1 (stereo not drawn) | inactive: 38.6%
CN(C)C1(CNC(=O)c2cccc(C#N)c2)CCCCC1 | inactive: -10.8%
c1ccc(CN2CCC(Nc3ccccc3)CC2)cc1 | inactive: -3.1%
Cc1cc(N(CCCl)CCCl)ccc1C=O | inactive: 4.03%
CCCN1CCC(Nc2cc(OC)cc(OC)c2)CC1 | inactive: -11.1%

SMILES | inhibition of corepressor binding
O=c1[nH]c2ccccc2n1C1CCN(C(c2ccccc2)c2nnnn2C2CCCC2)CC1 (stereo not drawn) | inactive: 7.87%
N#Cc1ccc(C(=O)NCC2(N3CCCCC3)CCCCC2)cc1 | inactive: 20.6%
CC(C)(C)OC(=O)N1CCC(N(C(=O)c2ccccc2)c2ccc(Cl)cc2)CC1 | inactive: 14.9%
O=C(NCC1(N2CCOCC2)CCCCC1)c1cc(=O)[nH]c2ccccc12 | inactive: -2.04%
COc1cc(C(=O)NCC2(N3CCCCC3)CCCCC2)ccc1OC(F)F | inactive: 30%
CCCCn1nnnc1C(c1cccc2ccccc12)N1CCC(n2c(=O)[nH]c3ccccc32)CC1 (stereo not drawn) | inactive: 24.6%
CC(C)c1ccc(C(=O)NCC2(N3CCOCC3)CCCCC2)cc1 | inactive: -19.8%
COc1ccc(NC2CCN(C(=O)OC(C)(C)C)CC2)cc1 | inactive: 1.67%
CN1CCN(CCOC(=O)C(O)(c2ccccc2)c2ccccc2)CC1 | inactive: -6.21%
O=C(NCC1(N2CCCCC2)CCCCC1)c1cccc(C(F)(F)F)c1 | inactive: -27.4%
CCN1CCC(Nc2ccc(Cl)cc2)CC1 | inactive: -29.4%
N#CC1(Nc2ccccc2)CCN(CCc2ccccc2)CC1 | inactive: -10.4%
O=c1[nH]c2ccccc2n1C1CCN(C(c2ccccc2OC(F)(F)F)c2nnnn2C2CCCC2)CC1 (stereo not drawn) | inactive: 40.5%
CSc1ccc(C(=O)NCC2(N3CCOCC3)CCCCC2)cc1 | inactive: -11.3%
O=C(NCC1(N2CCCCC2)CCCCC1)c1cccc([N+](=O)[O-])c1 | inactive: 3.11%
CC(C)(C)n1nnnc1C(c1ccccc1OC(F)(F)F)N1CCC(n2c(=O)[nH]c3ccccc32)CC1 (stereo not drawn) | inactive: 43.2%
O=C(NCC1(N2CCCCC2)CCCCC1)c1ccc(OC(F)F)cc1 | inactive: -8.66%
COc1ccc(C(c2nnnn2C2CCCC2)N2CCC(n3c(=O)[nH]c4ccccc43)CC2)cc1 (stereo not drawn) | inactive: -4.19%
Cc1ccc(C(=O)NCC2(N(C)C)CCCCC2)o1 | inactive: 14.2%
CCCOc1ccc(C(=O)NCC2(N(C)C)CCCCC2)cc1OC | inactive: -24.2%
O=C(NCC1(N2CCCCC2)CCCCC1)c1cncc(Br)c1 | inactive: 11%
CN1CCC(Nc2cccc(F)c2)CC1 | inactive: -33.5%

SMILES | inhibition of corepressor binding
COc1cc(OC)c(C(=O)NCC2(N(C)C)CCCCC2)cc1OC | inactive: -27.8%
CCC(c1nnnn1C(C)(C)C)N1CCC(n2c(=O)[nH]c3ccccc32)CC1 (stereo not drawn) | inactive: 25.8%
O=C(NCC1(N2CCOCC2)CCCCC1)c1cc(F)c(F)cc1Cl | inactive: -28.9%
CCCCn1nnnc1C(c1ccnc2ccccc12)N1CCC(n2c(=O)[nH]c3ccccc32)CC1 (stereo not drawn) | inactive: -1.39%
CC(C)c1ccc(NC2CCN(C(=O)OC(C)(C)C)CC2)cc1 | inactive: -68.6%
CCCCn1nnnc1C(c1ccccc1OC(F)(F)F)N1CCC(n2c(=O)[nH]c3ccccc32)CC1 (stereo not drawn) | inactive: 50.5%
COc1ccc(CN(CCCl)CCCl)cc1Cl | inactive: -4.09%
CN(C)c1cccc(C(=O)NCC2(N3CCCCC3)CCCCC2)c1 | inactive: -9.14%
O=c1[nH]c2ccccc2n1C1CCN(C(c2cc3ccccc3o2)c2nnnn2C2CCCCC2)CC1 (stereo not drawn) | inactive: -12%
O=C(OC1CN2CCC1CC2)C1c2ccccc2Oc2ccccc21 (stereo not drawn) | inactive: 10%
N#CC1(Nc2ccccc2)CCN(Cc2ccccc2)CC1 | inactive: -1.41%
O=C(NCC1(N2CCCCC2)CCCCC1)c1ccc(Cl)s1 | inactive: -14%
COc1ccc(Cl)cc1C(=O)NCC1(N2CCOCC2)CCCCC1 | inactive: -4.11%
CCOC(=O)N1CCC(Nc2ccc(OC)cc2)CC1 | inactive: 20%
CCCCn1nnnc1C(c1ccc(OC)cc1)N1CCC(n2c(=O)[nH]c3ccccc32)CC1 (stereo not drawn) | inactive: 1.42%
O=c1[nH]c2ccccc2n1C1CCN(C(c2ccccc2OC(F)(F)F)c2nnnn2C2CCCCC2)CC1 (stereo not drawn) | inactive: 8.5%
O=C(NCC1(N2CCCCC2)CCCCC1)c1ccc(Cl)nc1 | inactive: 8.7%
Cc1cc(C)cc(N(C(=O)c2ccccc2)C2CCN(C(=O)OC(C)(C)C)CC2)c1 | inactive: -16.4%
O=C(NCC1(N2CCOCC2)CCCCC1)c1cc2ccccc2o1 | inactive: -17.1%
CSc1ccccc1C(=O)NCC1(N2CCCCC2)CCCCC1 | inactive: -14.1%
Cc1cccc(NC2(C#N)CCN(Cc3ccccc3)CC2)c1 | inactive: -54.1%
COc1ccc(C(=O)NCC2(N3CCCCC3)CCCCC2)cc1 | inactive: -6.01%

SMILES | inhibition of corepressor binding
CCC(c1nnnn1C1CCCC1)N1CCC(n2c(=O)[nH]c3ccccc32)CC1 (stereo not drawn) | inactive: -8.04%
CC(C)(C)OC(=O)N1CCC(N(C(=O)c2ccccc2)c2ccc(F)cc2)CC1 | inactive: 1.66%
COc1ccc(C(=O)NCC2(N3CCCCC3)CCCCC2)c(OC)c1OC | inactive: -0.88%
O=C(NCC1(N2CCCCC2)CCCCC1)c1ccc(=O)[nH]c1 | inactive: -36.4%
CCCCn1nnnc1C(c1cccs1)N1CCC(n2c(=O)[nH]c3ccccc32)CC1 (stereo not drawn) | inactive: 29.4%
O=C(NCC1(N2CCCCC2)CCCCC1)c1cccs1 | inactive: 2.02%
CCCCn1nnnc1C(CC)N1CCC(n2c(=O)[nH]c3ccccc32)CC1 (stereo not drawn) | inactive: -5.96%
COc1cc(C(=O)NCC2(N(C)C)CCCCC2)ccc1OC(F)F | inactive: 13.1%
CCOC(=O)N1CCC(Nc2cccc(C)c2)CC1 | inactive: -1.35%
O=c1[nH]c2ccccc2n1C1CCN(C(c2cccc3ccccc23)c2nnnn2C2CCCC2)CC1 (stereo not drawn) | inactive: 22.6%
O=c1[nH]c2ccccc2n1C1CCN(C(c2ccccc2)c2nnnn2C2CCCCC2)CC1 (stereo not drawn) | inactive: -23.4%
O=C(NCC1(N2CCCCC2)CCCCC1)c1ccc(F)cc1 | inactive: 5.07%
CCCCOc1ccc(C(=O)NCC2(N3CCOCC3)CCCCC2)cc1 | inactive: 9.8%
O=P1(N(CCCl)CCCl)SCCCS1 | inactive: 11.8%
CCCCn1nnnc1C(c1cc2ccccc2o1)N1CCC(n2c(=O)[nH]c3ccccc32)CC1 (stereo not drawn) | inactive: 14.3%
CCOC(=O)N1CCC(Nc2ccc(F)cc2)CC1 | inactive: 15.2%
COc1ccc(NC2CCN(CCc3ccccc3)CC2)c(OC)c1 | inactive: 13.3%
CC(C)(C)n1nnnc1C(c1ccccc1)N1CCC(n2c(=O)[nH]c3ccccc32)CC1 (stereo not drawn) | inactive: 7.97%
O=C1CCN(Cc2ccccc2)CC1 | inactive: 3.73%
CCOc1ccc(C)cc1CN(CCCl)CCCl | inactive: 6.13%
